SMILES strings stand for the structures.

In this data set the test system is artificial oral biofilm of seven oral aerobic and anaerobic types of bacteria. The data set is described as follows: Antibacterial activity in an artificial oral biofilm. The data set is classed as cell-based. Conditions: 0.5 h, 100 μg/ml, pH 7. How it is done:
An artificial oral biofilm was made by placing hydroxyapatite discs for five days in a continuous culture system of seven oral aerobic and anaerobic types of bacteria (Streptococcus mutans, Streptococcus sanpuis, Streptococcus salivarius, Actinomyces naeslundii, Veillonella parvula, Prevotella intermedia and Fusobacterium nucleatum) The discs with the biofilm formed thereon were subsequently incubated for half an hour with different concentrations of peptide in 10 mM potassium phosphate buffer, pH 7.0. The biofilm was then sonicated from the discs, diluted in PBS and plated out on semi-selective agar plates. The total […] were counted (Streptococci+Actinomyces) on aerobic incubated blood agar plates, the total Gram-negative counts (Veilonella, Fusobacterium and Prevotella) on vancomycin-containing plates and the total counts on the anaerobic incubated blood agar.

With `CC[C@H](C)[C@H](NC(=O)[C@H](CCC(=O)O)NC(=O)[C@H](CCC(=O)O)NC(=O)[C@H](CC(=O)O)NC(=O)[C@H](CO)NC(=O)[C@H](C)NC(=O)[C@H](CC(C)C)NC(=O)[C@@H](N)CC(C)C)C(=O)N[C@@H](CCC(N)=O)C(=O)N[C@@H](CC(=O)O)C(=O)N[C@H](C(=O)N[C@@H](CO)C(=O)NCC(=O)N[C@H](C(=O)N[C@@H](Cc1c[nH]c2ccccc12)C(=O)N[C@@H](Cc1ccc(O)cc1)C(=O)N[C@@H](CC(C)C)C(=O)N[C@@H](CCCCN)C(=O)N[C@@H](C)C(=O)O)[C@@H](C)O)C(C)C` [negative control peptide, LLASDEEIQDVSGTWYLKA, reference compound], the “% reduction in viability counts, total Gram-negative average (s.d.)” value was 41.5 (183.6) %; the “% reduction in viability counts, total aerobic average” value stood at 96.6%; the “% reduction in viability counts, total anaerobic average” value was −71.7%.

The record behind these values is patent publication US6638531B1, “Antimicrobial peptides” (priority 1998, dated 2003).
